Test results published in paper PMC11237882 (2024).

Chains of the proteins cited; added tags and fusions are not shown. Lines headed by an entry give the natural chain unless they say otherwise; changes in a name come on top.
UniProt Q9P2A4: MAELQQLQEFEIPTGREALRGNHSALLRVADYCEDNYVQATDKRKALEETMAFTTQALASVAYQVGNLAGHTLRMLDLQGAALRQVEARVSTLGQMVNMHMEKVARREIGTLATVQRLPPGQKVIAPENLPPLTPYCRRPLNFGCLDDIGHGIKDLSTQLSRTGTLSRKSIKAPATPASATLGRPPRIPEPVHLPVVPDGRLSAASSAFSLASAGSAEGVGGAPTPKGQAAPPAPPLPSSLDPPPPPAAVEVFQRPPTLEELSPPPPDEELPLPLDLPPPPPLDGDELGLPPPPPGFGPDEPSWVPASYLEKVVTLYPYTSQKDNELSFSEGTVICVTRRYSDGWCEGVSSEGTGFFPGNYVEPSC
UniProt Q96QU1: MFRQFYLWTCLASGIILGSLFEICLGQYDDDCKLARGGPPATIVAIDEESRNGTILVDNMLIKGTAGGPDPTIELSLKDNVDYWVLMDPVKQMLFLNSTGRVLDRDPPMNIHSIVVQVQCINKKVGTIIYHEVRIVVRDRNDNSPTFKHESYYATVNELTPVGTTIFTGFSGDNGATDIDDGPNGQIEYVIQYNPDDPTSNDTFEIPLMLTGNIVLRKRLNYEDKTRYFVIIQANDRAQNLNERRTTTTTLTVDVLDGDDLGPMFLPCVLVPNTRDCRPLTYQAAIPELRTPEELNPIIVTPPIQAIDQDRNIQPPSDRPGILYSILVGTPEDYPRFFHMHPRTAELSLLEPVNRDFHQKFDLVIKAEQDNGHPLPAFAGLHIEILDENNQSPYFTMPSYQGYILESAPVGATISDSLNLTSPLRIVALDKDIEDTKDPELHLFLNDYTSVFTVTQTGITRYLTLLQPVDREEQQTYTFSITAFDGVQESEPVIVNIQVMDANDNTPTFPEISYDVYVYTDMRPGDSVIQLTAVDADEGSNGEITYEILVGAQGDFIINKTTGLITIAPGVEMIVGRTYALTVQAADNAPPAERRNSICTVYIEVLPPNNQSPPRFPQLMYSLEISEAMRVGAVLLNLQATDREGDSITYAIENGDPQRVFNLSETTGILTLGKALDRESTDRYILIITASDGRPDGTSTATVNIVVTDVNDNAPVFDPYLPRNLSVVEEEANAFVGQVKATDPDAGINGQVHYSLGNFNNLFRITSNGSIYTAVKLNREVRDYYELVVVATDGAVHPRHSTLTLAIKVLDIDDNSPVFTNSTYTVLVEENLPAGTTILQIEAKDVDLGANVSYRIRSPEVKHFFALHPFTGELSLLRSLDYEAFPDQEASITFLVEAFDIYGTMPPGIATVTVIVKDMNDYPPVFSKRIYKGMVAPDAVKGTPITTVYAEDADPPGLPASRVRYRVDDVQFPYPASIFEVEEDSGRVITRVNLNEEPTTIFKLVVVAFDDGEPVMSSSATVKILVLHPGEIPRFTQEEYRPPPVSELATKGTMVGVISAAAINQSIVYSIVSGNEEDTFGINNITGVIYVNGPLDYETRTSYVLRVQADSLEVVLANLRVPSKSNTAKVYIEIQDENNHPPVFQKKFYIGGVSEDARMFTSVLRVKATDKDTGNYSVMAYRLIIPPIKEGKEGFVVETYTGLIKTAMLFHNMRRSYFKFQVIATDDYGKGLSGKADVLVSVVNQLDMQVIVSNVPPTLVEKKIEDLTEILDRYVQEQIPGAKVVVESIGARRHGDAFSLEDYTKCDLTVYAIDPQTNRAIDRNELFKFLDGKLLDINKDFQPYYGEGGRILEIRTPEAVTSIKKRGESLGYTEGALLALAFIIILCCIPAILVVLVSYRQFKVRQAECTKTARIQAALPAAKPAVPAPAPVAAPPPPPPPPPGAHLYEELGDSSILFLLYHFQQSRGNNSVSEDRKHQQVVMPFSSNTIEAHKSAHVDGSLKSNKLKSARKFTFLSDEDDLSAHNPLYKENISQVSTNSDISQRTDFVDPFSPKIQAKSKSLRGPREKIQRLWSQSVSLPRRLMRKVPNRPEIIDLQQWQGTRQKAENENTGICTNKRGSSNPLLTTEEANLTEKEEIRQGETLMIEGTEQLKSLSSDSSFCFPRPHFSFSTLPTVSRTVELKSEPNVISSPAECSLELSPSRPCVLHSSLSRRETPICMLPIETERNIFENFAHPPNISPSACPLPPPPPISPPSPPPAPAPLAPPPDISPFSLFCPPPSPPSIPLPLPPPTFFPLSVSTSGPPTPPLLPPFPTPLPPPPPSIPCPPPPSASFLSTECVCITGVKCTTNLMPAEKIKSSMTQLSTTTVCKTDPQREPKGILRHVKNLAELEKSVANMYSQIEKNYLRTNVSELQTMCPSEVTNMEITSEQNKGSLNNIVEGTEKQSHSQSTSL
UniProt Q7Z5R6: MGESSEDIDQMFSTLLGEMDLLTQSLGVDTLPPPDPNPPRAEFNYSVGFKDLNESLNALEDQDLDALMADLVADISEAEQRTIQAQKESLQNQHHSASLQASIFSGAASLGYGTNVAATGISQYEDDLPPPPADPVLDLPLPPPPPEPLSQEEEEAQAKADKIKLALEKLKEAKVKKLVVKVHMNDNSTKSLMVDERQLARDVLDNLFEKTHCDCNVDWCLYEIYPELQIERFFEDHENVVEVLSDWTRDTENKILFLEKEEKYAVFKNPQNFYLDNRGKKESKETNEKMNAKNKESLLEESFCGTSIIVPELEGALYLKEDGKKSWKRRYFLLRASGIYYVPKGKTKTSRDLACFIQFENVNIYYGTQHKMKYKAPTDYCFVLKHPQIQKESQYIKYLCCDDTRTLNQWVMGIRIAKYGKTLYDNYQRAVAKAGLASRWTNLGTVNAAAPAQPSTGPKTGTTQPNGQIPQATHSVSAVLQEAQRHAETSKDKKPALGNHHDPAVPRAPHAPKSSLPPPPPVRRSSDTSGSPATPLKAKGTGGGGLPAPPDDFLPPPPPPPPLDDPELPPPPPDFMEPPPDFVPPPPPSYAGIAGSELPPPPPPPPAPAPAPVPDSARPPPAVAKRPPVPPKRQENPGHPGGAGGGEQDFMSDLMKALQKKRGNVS
UniProt P17676: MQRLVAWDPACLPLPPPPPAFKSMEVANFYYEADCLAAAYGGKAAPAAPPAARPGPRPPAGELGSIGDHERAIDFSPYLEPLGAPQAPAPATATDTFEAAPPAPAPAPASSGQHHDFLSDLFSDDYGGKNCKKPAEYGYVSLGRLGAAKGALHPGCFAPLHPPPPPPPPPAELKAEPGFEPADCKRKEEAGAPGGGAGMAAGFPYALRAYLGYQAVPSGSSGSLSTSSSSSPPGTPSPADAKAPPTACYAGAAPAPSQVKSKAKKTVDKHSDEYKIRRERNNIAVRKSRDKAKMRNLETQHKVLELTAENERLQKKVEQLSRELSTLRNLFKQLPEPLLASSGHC
UniProt Q969T9: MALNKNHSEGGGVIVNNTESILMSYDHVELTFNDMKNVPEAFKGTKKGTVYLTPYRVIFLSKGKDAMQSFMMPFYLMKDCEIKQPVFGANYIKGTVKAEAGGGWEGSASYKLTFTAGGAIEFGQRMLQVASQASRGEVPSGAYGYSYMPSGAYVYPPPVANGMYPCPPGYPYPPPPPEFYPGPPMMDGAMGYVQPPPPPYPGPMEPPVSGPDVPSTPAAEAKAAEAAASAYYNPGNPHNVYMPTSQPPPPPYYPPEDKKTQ
UniProt Q9UPP2: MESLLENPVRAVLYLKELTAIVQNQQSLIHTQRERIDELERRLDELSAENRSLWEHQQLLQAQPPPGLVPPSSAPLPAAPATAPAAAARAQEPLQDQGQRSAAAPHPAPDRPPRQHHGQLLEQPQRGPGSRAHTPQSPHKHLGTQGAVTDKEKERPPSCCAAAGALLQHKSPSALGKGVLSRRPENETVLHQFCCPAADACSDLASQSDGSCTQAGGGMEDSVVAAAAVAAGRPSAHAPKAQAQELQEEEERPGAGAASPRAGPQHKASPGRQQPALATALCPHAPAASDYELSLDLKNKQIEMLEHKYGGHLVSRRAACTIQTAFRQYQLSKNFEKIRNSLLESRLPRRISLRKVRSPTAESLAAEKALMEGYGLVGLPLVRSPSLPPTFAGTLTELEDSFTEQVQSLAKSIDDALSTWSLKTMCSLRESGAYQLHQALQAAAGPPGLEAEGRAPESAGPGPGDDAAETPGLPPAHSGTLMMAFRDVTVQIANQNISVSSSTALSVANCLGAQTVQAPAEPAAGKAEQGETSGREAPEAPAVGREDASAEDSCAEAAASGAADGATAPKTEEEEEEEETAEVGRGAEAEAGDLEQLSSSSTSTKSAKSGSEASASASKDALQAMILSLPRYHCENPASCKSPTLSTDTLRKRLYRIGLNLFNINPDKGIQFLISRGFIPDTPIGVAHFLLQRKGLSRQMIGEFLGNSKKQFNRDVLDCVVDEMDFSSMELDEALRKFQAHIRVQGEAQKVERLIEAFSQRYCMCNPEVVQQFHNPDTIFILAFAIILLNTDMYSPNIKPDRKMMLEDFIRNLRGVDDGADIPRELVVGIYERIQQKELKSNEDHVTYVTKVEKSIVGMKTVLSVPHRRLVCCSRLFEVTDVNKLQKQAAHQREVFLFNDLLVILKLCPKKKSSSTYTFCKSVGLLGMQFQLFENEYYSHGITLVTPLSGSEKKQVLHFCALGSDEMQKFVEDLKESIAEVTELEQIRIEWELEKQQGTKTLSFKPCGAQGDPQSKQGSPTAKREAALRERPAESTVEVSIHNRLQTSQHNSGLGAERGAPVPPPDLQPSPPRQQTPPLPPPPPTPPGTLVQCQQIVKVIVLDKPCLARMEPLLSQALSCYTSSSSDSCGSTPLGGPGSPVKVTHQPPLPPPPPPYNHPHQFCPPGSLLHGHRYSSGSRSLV
UniProt Q16643: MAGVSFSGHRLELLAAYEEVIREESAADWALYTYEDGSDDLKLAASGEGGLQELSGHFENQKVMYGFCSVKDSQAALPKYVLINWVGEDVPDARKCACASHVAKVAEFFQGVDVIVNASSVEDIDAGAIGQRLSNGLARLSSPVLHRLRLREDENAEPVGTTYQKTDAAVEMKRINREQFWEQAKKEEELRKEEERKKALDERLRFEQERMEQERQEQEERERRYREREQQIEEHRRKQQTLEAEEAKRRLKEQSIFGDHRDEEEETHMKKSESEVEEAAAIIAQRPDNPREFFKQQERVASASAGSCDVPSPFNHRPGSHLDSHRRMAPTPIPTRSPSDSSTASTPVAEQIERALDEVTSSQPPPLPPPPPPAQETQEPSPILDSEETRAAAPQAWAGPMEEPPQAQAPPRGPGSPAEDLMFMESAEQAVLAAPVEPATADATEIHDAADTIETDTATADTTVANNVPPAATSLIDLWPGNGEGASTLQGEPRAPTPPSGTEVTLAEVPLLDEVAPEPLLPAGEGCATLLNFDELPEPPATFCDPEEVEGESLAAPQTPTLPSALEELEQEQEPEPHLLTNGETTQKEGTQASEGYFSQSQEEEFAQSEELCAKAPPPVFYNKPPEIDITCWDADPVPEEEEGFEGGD
UniProt Q9Y6W5: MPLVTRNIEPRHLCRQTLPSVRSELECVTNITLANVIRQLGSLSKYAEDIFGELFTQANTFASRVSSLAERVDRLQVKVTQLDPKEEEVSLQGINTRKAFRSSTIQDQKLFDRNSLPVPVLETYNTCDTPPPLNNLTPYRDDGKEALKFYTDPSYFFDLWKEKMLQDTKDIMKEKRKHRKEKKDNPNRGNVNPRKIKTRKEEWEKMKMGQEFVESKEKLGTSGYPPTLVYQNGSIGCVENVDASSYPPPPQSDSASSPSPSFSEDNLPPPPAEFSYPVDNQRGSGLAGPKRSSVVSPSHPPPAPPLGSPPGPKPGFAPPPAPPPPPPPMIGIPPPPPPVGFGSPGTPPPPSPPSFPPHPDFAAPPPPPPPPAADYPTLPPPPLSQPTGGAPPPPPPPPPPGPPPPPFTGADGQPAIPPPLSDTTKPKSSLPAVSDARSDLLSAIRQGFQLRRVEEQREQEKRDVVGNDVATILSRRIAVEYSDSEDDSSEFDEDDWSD

T1: ABI3 (Homo sapiens (Human), UniProt Q9P2A4)
T1 chain: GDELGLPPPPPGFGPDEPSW

T2: PCDH15 (Homo sapiens (Human), UniProt Q96QU1)
T2 chain: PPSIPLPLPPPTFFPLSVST

T3: APBB1IP_1 (Homo sapiens (Human), UniProt Q7Z5R6)
T3 chain: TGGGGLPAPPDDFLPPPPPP

T4: CEBPB (Homo sapiens (Human), UniProt P17676)
T4 chain: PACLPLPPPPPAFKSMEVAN

T5: WBP2 (Homo sapiens (Human), UniProt Q969T9)
T5 chain: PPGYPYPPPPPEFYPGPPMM

T6: IQSEC3 (Homo sapiens (Human), UniProt Q9UPP2)
T6 chain: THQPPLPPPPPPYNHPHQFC

T7: DBN1 (Homo sapiens (Human), UniProt Q16643)
T7 chain: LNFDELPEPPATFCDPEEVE

T8: WASF2 (Homo sapiens (Human), UniProt Q9Y6W5)
T8 chain: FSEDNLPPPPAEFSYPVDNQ

T9: APBB1IP_2 (Homo sapiens (Human), UniProt Q7Z5R6)
T9 chain: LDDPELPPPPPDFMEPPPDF

T10: DSCAM (Homo sapiens (Human), UniProt O60469)
T10 chain: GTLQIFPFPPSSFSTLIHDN


Experiments:
Assay in all cases: BLI (SUMO-peptide on tip, monomeric EVH1)
ABI3 = molecular target: T1, ABI3
PCDH15 = molecular target: T2, PCDH15
APBB1IP_1 = molecular target: T3, APBB1IP_1
CEBPB = molecular target: T4, CEBPB
WBP2 = molecular target: T5, WBP2
IQSEC3 = molecular target: T6, IQSEC3
DBN1 = molecular target: T7, DBN1
WASF2 = molecular target: T8, WASF2
APBB1IP_2 = molecular target: T9, APBB1IP_2
DSCAM = molecular target: T10, DSCAM

Row | Kd (ABI3) [µM] | Kd (PCDH15) [µM] | Kd (APBB1IP_1) [µM] | Kd (CEBPB) [µM] | Kd (WBP2) [µM] | Kd (IQSEC3) [µM] | Kd (DBN1) [µM] | Kd (WASF2) [µM] | Kd (APBB1IP_2) [µM] | Kd (DSCAM) [µM] | Binder
1 | 26 | 108 | 26 | 57 | 12 | 57 | 57 |  |  |  | ENAH (protein) MSEQSICQARAAVMVYDDANKKWVPAGGSTGFSRVHIYHHTGNNTFRVVGRKIQDHQVVINCAIPKGLKYNQATQTFHQWRDARQVYGLNFGSKEDANVFASAMMHALEVLNS
2 |  |  |  | 37 |  | 38 | 12 | 13 | 25 | 55 | HOMER1 (protein) MGEQPIFSTRAHVFQIDPNTKKNWVPTSKHAVTVSYFYDSTRNVYRIISLDGSKAIINSTITPNMTFTKTSQKFGQWADSRANTVYGLGFSSEHHLSKFAEKFQEFKEAARLA
